Among the data in PubChem BioAssay AID1025 (Sanford-Burnham Center for Chemical Genomics, 2008) are activation factor values, retold here.

Protein sequences, listed by entry. Tags and fused reporters are not part of them.
UniProt P33261, whole entry: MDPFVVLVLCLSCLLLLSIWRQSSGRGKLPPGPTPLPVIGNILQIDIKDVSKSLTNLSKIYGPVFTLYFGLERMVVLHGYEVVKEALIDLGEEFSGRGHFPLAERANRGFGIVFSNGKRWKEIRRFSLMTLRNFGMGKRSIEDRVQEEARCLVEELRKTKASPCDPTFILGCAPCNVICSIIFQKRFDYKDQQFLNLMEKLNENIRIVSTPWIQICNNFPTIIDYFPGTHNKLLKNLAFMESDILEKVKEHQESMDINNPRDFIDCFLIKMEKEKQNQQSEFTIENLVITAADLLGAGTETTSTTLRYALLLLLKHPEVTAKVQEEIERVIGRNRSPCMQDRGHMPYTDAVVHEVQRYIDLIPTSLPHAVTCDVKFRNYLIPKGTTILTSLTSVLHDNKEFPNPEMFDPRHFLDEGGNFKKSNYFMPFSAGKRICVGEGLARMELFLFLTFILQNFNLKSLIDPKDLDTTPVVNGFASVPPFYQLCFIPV

The other results are listed elsewhere or left out. The source made the active and inactive calls.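 The calls were made as follows: active = activation factor of at least 2 at 5 µM in the primary screen; inactive = the rest.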

This test addresses Cytochrome P450 2C19 (Homo sapiens) (UniProt P33261). The test can be described thus: enhancers of cytochrome P450 2C19 turnover – biochemical, luminescence, primary screen (AID 1025).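 Also: 0 = wells with 2.5 mM tranylcypromine and 1 = vehicle-only wells.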 To be noted: recombinant CYP2C19, luciferin-H EGE luminescence; at 5 µM; active compounds read high; 0 = fully inhibited enzyme, 1 = untreated enzyme.
As to `CP(=O)(Nc1ccccc1F)Oc1ccccc1` (stereo not given), the activation factor is inactive: 0.8. As for `CP(=O)(Nc1ccccc1)Oc1ccc(F)cc1` (stereo not given), the figure is inactive: 0.8; as for `CN(C)CCOC(=O)C(O)(c1ccccc1)C1CCCCC1` (stereo not given), inactive: 0.5; as for `COc1ccc(OP(C)(=O)Nc2cccc(Br)c2)cc1` (stereo not given), inactive: 0.3. As for `Cc1ccccc1NP(C)(=O)Nc1ccccc1C`, the figure is inactive: 0.2; as for `CCOP(C)(=S)SCC(=O)NC(C)(CC)C(=O)O` (stereo not given), inactive: 1.1; as for `CC(C)(C)c1ccc(OP(C)(=O)O)cc1`, inactive: 1.1. `COc1ccccc1OP(C)(=O)Nc1c(C)n(C)n(-c2ccccc2)c1=O` (stereo not given): the activation factor was inactive: 1.

As for `CP(=O)(Oc1ccccc1)N1CCOC1=O` (stereo not given), the activation factor is inactive: 1.

As for `CCN(CC)CC(O)COC(=O)C(O)(c1ccccc1)C1CCCCC1` (stereo not given), the activation factor is inactive: 1. Next, `CP(=O)(OC12CC3CC(CC(C3)C1)C2)OC12CC3CC(CC(C3)C1)C2`: inactive: 1.2. With `Cc1nc2ccc3ccccc3c2o1.O=[N+]([O-])c1cc([N+](=O)[O-])c(O)c([N+](=O)[O-])c1`, the activation factor is inactive: 1.1. As for `COc1ccccc1OP(C)(=O)Nc1ccc(C)c(C)c1` (stereo not given), the figure is inactive: 0.1; as for `COc1ccccc1OP(C)(=O)Nc1ccc(C)cc1C` (stereo not given), inactive: 0.7; as for `CP(=O)(Nc1ccccn1)Oc1ccccc1` (stereo not given), inactive: 0.9. As for `CCc1ccc(OP(C)(=O)O)cc1`, the activation factor was inactive: 1.

Take `Cc1c(NP(C)(=O)Oc2ccc(C(C)C)cc2)c(=O)n(-c2ccccc2)n1C` (stereo not given): the activation factor was inactive: 0.9. Turning to `COc1ccc(OP(C)(=O)Nc2ccccn2)cc1` (stereo not given), the activation factor was inactive: 0.5. On to `CN(C)CCOC(=O)C(O)(c1ccccc1)C1CCCC1` (stereo not given), for which the activation factor was inactive: 0.9. Next, `COc1ccc(OP(C)(=O)Nc2cccc(F)c2)cc1` (stereo not given): inactive: 0; `Cc1ccc(NP(C)(=O)Oc2ccccc2)c(C)c1` (stereo not given): inactive: 0.4. Regarding `COc1ccccc1OP(C)(=O)Nc1ccc(C)cc1` (stereo not given), the activation factor is inactive: 0.2. In the case of `CP(=S)(Nn1cnnc1)Oc1ccccc1` (stereo not given), the activation factor is inactive: 0.9. Regarding `CP(=O)(Nc1ccccn1)Oc1ccc(Cl)cc1` (stereo not given), the activation factor is inactive: 0.6. Consider `CCOP(C)(=S)SCC(=O)NC(C)C(=O)O` (stereo not given), for which the activation factor was inactive: 0.8.

`CP(=O)(NC(=O)Nc1ccccc1)Oc1ccccc1` (stereo not given): the activation factor was inactive: 1.1. Next, `Cc1nc2ccc3ccccc3c2s1.O=[N+]([O-])c1cc([N+](=O)[O-])c(O)c([N+](=O)[O-])c1`: inactive: 0.9. In the case of `Cc1ccc(C)c(NP(C)(=O)Oc2ccccc2)c1` (stereo not given), the activation factor was inactive: 0.8. As for `Cc1cc(C)cc(OP(C)(=O)Nc2ccccn2)c1` (stereo not given), the figure is inactive: 0.5; as for `Cc1cc(C)cc(OP(C)(=O)Nc2ccc(C)cc2C)c1` (stereo not given), inactive: 0.1.
